Results published in patent publication US4560662A, “Streptomyces antibioticus ATCC 31771 and process for obtaining same” (priority 1981, dated 1985).

Test: physchem
Assay type: physicochemical
Details: acidic environment, pH 4
Experimental: Stability in acidic environment at 25° C. of the novel
antibiotics in comparison with erythromycin A
t 1/2 represents the half life time of the antibiotics as determined by
high pressure liquid phase chromatography (HPLC).

For CC[C@H]1OC(=O)[C@H](C)[C@@H](O[C@H]2C[C@@](C)(OC)[C@@H](O)[C@H](C)O2)[C@H](C)[C@@H](O[C@@H]2O[C@H](C)C[C@H](N(C)C)[C@H]2O)[C@](C)(O)C[C@@H](C)C(=O)[C@H](C)[C@@H](O)[C@]1(C)O [Erythromycin A, reference compound], the half-life was 2 h.
